From US10597391B2, “Urea-containing isoxazole derivatives as FXR agonists and methods of use thereof” (Enanta Pharmaceuticals, Inc., priority 2016, dated 2020) come the findings set out here.

Sequences of proteins named here, by UniProt entry; tags and fusion partners are left off.
UniProt Q96RI1, whole entry: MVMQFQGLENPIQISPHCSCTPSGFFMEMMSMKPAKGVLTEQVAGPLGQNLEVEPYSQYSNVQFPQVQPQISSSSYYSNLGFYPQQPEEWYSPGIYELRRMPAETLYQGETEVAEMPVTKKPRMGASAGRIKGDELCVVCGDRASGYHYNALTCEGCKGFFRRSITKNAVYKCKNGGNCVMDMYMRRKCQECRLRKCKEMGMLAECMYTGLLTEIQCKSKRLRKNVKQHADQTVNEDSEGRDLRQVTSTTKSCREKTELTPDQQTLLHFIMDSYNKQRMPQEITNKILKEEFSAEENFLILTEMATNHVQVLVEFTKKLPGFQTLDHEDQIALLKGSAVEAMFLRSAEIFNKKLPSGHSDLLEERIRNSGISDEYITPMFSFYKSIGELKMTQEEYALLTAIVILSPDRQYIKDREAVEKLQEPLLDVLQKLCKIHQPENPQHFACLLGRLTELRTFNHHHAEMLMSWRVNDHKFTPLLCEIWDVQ

This assay concerns the target human FXR (NR1H4) (Homo sapiens, UniProt Q96RI1). The experiment in a line: Human FXR (NR1H4) Assay: Gal4 promoter driven luciferase reporter transactivation in CHO cells (Indigo Bioscience kit IB00601). It counts as cell-based. The following applies: for Efficacy (%): efficacy normalized to CDCA set as 100%; for EC50: potency range, Human FXR (NR1H4) reporter assay in CHO cells. (In a reporter assay the amount or activity of a reporter protein is the signal.)

For `O=C(O)c1ccc(NC(=O)N2C3CCC2CC(OCc2c(-c4c(Cl)cccc4Cl)noc2C2CC2)C3)cc1-c1cccnc1` (stereo not drawn), the “Efficacy (%)” value turned out to be 36% and the EC50 – broadly, the concentration giving half of the maximal effect – is 0.01 to 0.1 µM.

On to `COC(=O)c1ccc(NC(=O)N2C3CCC2CC(OCc2c(-c4c(Cl)cccc4Cl)noc2C2CC2)C3)cc1-c1cccnc1` (stereo not drawn), for which the “Efficacy (%)” value came to 87% and the EC50 is < 0.01 µM.

Regarding `COC(=O)c1ccc(NC(=O)N2C3CCC2CC(OCc2c(-c4c(Cl)cccc4Cl)noc2C2CC2)C3)c(F)c1` (stereo not drawn), the “Efficacy (%)” value amounted to 165% and the EC50 was in the range of 0.01 to 0.1 µM.
